# Like-named read-outs stand apart in the source and are kept apart here.
# Chains of the proteins cited; added tags and fusions are not shown. Lines headed by an entry give the natural chain unless they say otherwise; changes in a name come on top.
# UniProt P11309, whole entry: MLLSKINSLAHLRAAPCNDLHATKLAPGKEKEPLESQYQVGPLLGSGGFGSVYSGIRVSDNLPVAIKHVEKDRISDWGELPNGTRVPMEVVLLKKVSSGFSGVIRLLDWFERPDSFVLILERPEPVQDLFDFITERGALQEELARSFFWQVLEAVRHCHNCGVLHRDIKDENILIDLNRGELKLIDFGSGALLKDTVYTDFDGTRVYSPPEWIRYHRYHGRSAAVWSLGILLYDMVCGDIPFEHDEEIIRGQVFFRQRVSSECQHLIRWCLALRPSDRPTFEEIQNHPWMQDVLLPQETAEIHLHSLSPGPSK
# UniProt Q9P1W9: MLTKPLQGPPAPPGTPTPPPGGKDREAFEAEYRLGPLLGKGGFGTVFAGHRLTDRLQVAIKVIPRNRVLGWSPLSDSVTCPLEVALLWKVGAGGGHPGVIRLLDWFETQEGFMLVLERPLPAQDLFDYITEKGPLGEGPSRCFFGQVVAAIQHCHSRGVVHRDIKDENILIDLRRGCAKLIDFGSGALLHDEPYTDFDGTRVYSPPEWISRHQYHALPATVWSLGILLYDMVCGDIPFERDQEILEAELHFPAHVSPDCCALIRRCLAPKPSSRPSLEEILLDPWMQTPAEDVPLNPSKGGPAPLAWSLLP
# Assays:
# Pim-1 = Pim-1 (Homo sapiens (Human), UniProt P11309); assay: Pim enzyme assay (HTRF, phosphorylation of biotinylated-BAD (S112) peptide), Pim-1; assay type: biochemical; conditions: read-out: Pim-1 IC50 IP
# Text: (§1) Full-length human cDNAs encoding Pim-1 (MGC ID 3913552) or Pim-2 (IMAGE ID 5092935) were purchased from Invitrogen, Carlsbad, Calif. These cDNAs were used as templates in PCR reactions to produce full-length DNA clones of the PIMs. Oligonucleotide PCR primers for Pim-1 were 5′-[…]-3′ and 5′-[…]-3′. Oligonucleotide PCR primers for Pim-2 were 5′-[…]-3′ and 5′-[…]-3′. PCR products were digested with BclI and EcoRI for Pim-1 and BamHI and EcoRI for Pim-2 and ligated into a modified baculovirus transfer vector (pFastBac 1) cleaved with BamHI and EcoRI. For bacterial expression, the same cleaved PCR products encoding Pim-1 or Pim-2 were ligated into a modified E. coli expression vector pET28(a) cleaved with BamHI and EcoRI. Amino-terminal hexahistidine tags followed by a thrombin cleavage site were previously added to the vectors using standard methods of molecular biology. Recombinant baculoviruses expressing Pim-1 or Pim-2 were made using standard methods (Fastbac manual, Invitrogen, Carlsbad, Calif.). Infection of Sf9 cells was done at an m.o.i. of greater than 5 for 24-48 h. Cells were harvested by centrifugation and frozen at −80 C. For E. coli expression, cells carrying pET28-His6-Th-Pim-1 or pET28-His6-Th-Pim-2 were picked from a single colony and grown o/n in LB media. The o/n culture was used to inoculate a 2 liter flask with 500 mL media. This was grown o/n and used to inoculate 15-20 liters of Terrific Broth in a New Brunswick Scientific fermentor. The E. coli were grown at 37° C. to and OD600>1.6. The temperature was dropped to 18° C. and o/n expression was induced with 0.5 mM IPTG. Cells were harvested by centrifugation and frozen at −80° C.
# (§2) The frozen cell pellets were thawed by stirring in chilled lysis buffer (0.05 M HEPES, pH 8.0, 0.25 M NaCl, 0.01 M 2-mercaptoethanol, 10% (w/v) glycerol, 0.5% (v/v) protease inhibitor cocktail (Sigma P-8340) at a ratio of 1 L/200 g cells until homogeneous. The thawed suspension was applied to a microfluidizer at 10,000 PSI to disrupt the cells and the whole lysates were clarified by centrifugation at 50,000×g for 90 min, 4° C. Imidazole was added to the clarified lysate to a final concentration of 2.5 mM and the lysate was mixed with 10 mL of Talon resin (Clontech) and the slurry rocked gently overnight at 4° C. The slurry was centrifuged at 1,000×g for 5 min, the supernatant decanted, and the resin suspended in 40 mL of lysis wash buffer (lysis buffer at 0.75 M NaCl). This step was repeated 3× and the resin was transferred to a 2.5 cm glass column. Ten column volumes of wash buffer (0.05 M HEPES, pH 8.0, 0.1 M NaCl, 0.01 M 2-mercaptoethanol, 10% (w/v) glycerol) were applied to the resin followed by 10 column volumes of elution buffer (0.05 M HEPES, pH 8.0, 0.25 M NaCl, 0.01 M 2-mercaptoethanol, 10% (w/v) glycerol, 0.1 M imidazole). Fractions were analyzed by SDS-PAGE and those containing the protein of interest were pooled and concentrated. The concentrated protein was applied to an Amersham Superdex 75 (XK 26/60) column equilibrated in 0.025 M Tris-HCl, pH 7.5, 0.1 M NaCl, 0.01 M 2-mercaptoethanol, 10% (w/v) glycerol. […] Fractions containing the monomeric protein of interest were pooled, concentrated to ˜2 mg/mL, and stored at −80° C.
# (§3) The phosphorylation of biotinylated-BAD (S112) peptide by full length recombinant Pim-1, Pim-2, or Pim-3 protein was detected with streptavidin:Allophycocyanin (APC) conjugate and a europium (Eu) labeled antibody directed against phosphorylated-BAD (S112). Excitation of Eu by a high energy laser light (337 nm) leads to a transfer of energy to the APC molecule, and results in an emission at 665 nm. The fluorescence is directly proportional to the amount of phosphorylated BAD peptide present in the reaction.
# Pim-2 = Pim-2 (Homo sapiens (Human), UniProt Q9P1W9); assay: Pim enzyme assay (HTRF, phosphorylation of biotinylated-BAD (S112) peptide), Pim-2; assay type: biochemical; conditions: read-out: Pim-2 IC50 IP
# Text: as §1, §2, §3
# [1] = full length recombinant Pim-1, biotinylated-BAD (S112) peptide, HTRF, 96-well
# [2] = full length recombinant Pim-2, biotinylated-BAD (S112) peptide, HTRF, 96-well
SMILES,IC50 (Pim-1; [1]) [nM],IC50 (Pim-2; [2]) [nM],IC50 (Pim-1) [nM],IC50 (Pim-2) [nM]
"N[C@@H]1CN(c2ccncc2Nc2ncc3ccc(-c4c(F)cccc4F)nn23)CC[C@H]1F (racemic) [Example 43, rac-N-(4-(trans-3-amino-4-fluoropiperidin-1-yl)pyridin-3-yl)-2-(2,6-difluorophenyl)imidazo[1,5-b]pyridazin-7-amine]",0.2,1.1,,
"C[C@@H]1C[C@H](N)CN(c2ccncc2Nc2ncc3ccc(-c4c(F)cccc4F)nn23)C1 (single isomer, unassigned) [Example 39, N-(4-((cis)-3-amino-5-methylpiperidin-1-yl)pyridin-3-yl)-2-(2,6-difluorophenyl)imidazo[1,5-b]pyridazin-7-amine]",2.1,7.8,,
"N[C@@H]1CN(c2ccncc2Nc2ncc3ccc(-c4c(F)cccc4F)nn23)CC[C@H]1F (single isomer, unassigned) [Example 44, N-(4-(trans-3-amino-4-fluoropiperidin-1-yl)pyridin-3-yl)-2-(2,6-difluorophenyl)imidazo[1,5-b]pyridazin-7-amine]",,48.8,,
"N[C@@H]1CN(c2ccncc2Nc2ncc3ccc(-c4c(F)cccc4F)nn23)CC[C@H]1F (single isomer, unassigned) [Example 45, N-(4-(trans-3-amino-4-fluoropiperidin-1-yl)pyridin-3-yl)-2-(2,6-difluorophenyl)imidazo[1,5-b]pyridazin-7-amine]",,1.1,,
"C[C@@H]1CN(c2ccncc2Nc2ncc3ccc(-c4c(F)cccc4F)nn23)[C@@H](C)CN1 (single isomer, unassigned) [Example 52, 2-(2,6-difluorophenyl)-N-(4-((trans)-2,5-dimethyl-1-piperazinyl)-3-pyridinyl)imidazo[1,5-b]pyridazin-7-amine]",3.3,105,,
"N[C@@H]1C=C(c2ccncc2Nc2ncc3ccc(-c4c(F)cccc4F)nn23)CCC1 (single isomer, unassigned) [Example 83, N-(4-(3-aminocyclohex-1-en-1-yl)pyridin-3-yl)-2-(2,6-difluorophenyl)imidazo[1,5-b]pyridazin-7-amine tris(2,2,2-trifluoroacetate)]",,6.3,,
"N[C@@H]1C=C(c2ccncc2Nc2ncc3ccc(-c4c(F)cccc4F)nn23)CCC1 (single isomer, unassigned) [Example 84, N-(4-(3-aminocyclohex-1-en-1-yl)pyridin-3-yl)-2-(2,6-difluorophenyl)imidazo[1,5-b]pyridazin-7-amine tris(2,2,2-trifluoroacetate)]",,189,,
"C[C@H]1CC[C@H](N)CN1c1ccncc1Nc1ncc2ccc(-c3c(F)cccc3F)nn12 (single isomer, unassigned) [Example 85, N-(4-(5-amino-2-methylpiperidin-1-yl)pyridin-3-yl)-2-(2,6-difluorophenyl)imidazo[1,5-b]pyridazin-7-amine tris(2,2,2-trifluoroacetate)]",,,2.7,38.7
"C[C@H]1CC[C@H](N)CN1c1ccncc1Nc1ncc2ccc(-c3c(F)cccc3F)nn12 (single isomer, unassigned) [Example 86, N-(4-(5-amino-2-methylpiperidin-1-yl)pyridin-3-yl)-2-(2,6-difluorophenyl)imidazo[1,5-b]pyridazin-7-amine tris(2,2,2-trifluoroacetate)]",< 0.1,1,,
"C[C@H]1CC[C@H](N)CN1c1ccncc1Nc1ncc2ccc(-c3c(F)cccc3F)nn12 (single isomer, unassigned) [Example 87, N-(4-(5-amino-2-methylpiperidin-1-yl)pyridin-3-yl)-2-(2,6-difluorophenyl)imidazo[1,5-b]pyridazin-7-amine tris(2,2,2-trifluoroacetate)]",< 0.1,0.3,,
"N[C@H]1CCCN(c2ccncc2Nc2ncc3ccc(-c4ncccc4F)nn23)C1 [Example 40, N-(4-((3S)-3-amino-1-piperidinyl)-3-pyridinyl)-2-(3-fluoro-2-pyridinyl)imidazo [1,5-b]pyridazin-7-amine]",,,0.2,
